{
  "sequences": {"note": "By UniProt entry, the sequences of proteins in these tests, tags left out. Residues count along the entry.", "UniProt P06756, 31-1048, chain 1 of 2": "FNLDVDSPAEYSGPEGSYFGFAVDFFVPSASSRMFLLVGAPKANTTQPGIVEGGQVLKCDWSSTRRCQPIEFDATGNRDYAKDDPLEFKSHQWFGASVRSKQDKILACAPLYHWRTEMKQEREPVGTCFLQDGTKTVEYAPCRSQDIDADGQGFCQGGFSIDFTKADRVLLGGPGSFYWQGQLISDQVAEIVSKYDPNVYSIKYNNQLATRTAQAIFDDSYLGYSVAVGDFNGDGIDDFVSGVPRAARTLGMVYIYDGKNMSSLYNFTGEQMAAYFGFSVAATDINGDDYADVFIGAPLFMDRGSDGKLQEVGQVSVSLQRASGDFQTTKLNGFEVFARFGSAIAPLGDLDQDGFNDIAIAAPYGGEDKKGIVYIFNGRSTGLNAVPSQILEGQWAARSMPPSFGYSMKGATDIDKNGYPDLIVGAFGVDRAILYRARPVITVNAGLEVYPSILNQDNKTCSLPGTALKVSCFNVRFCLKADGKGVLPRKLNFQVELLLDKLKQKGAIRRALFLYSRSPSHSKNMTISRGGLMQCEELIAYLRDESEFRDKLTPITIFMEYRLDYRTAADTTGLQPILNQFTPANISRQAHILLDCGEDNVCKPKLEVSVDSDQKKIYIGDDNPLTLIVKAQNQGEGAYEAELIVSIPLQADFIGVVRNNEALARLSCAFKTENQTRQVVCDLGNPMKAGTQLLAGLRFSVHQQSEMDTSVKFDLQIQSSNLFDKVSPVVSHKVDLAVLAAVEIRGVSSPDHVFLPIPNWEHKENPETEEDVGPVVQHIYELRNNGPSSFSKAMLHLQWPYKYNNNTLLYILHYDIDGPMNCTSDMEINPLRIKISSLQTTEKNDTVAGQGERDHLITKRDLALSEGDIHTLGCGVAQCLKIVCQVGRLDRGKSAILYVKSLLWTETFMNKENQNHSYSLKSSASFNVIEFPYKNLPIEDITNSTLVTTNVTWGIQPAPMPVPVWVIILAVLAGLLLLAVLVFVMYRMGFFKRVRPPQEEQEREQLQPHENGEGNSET"},
  "source": "patent US20200010516A1",
  "key": {"[1]": {"target": "integrin αvβ6 on HT-29 cells (human) (UniProt P06756)", "experiment": "cell-based or functional assay"}, "[2]": {"target": "integrin αvβ5 on HT-29 cells (human) (UniProt P06756)", "experiment": "cell-based or functional assay"}},
  "data": [
    {"substance": "^39SRAGK-^46RIPRGDMP-^66RYH (Rho wild-type) (from UniProt P30403 408-475) (ligand)", "values": [
      {"measurement": "IC50, adhesion of HT-29 cells to fibronectin", "setting": "[1]", "result": 176, "unit": "nM"},
      {"measurement": "IC50, adhesion of HT-29 cells to vitronectin", "setting": "[2]", "result": 94.4, "unit": "nM"}
    ]}
  ]
}
